Reference: patent publication US20220087987A1, “A METHOD FOR TREATING SWI/SNF COMPLEX-DEFICIENT CANCERS COMPRISING GLUTATHIONE (GSH) METABOLIC PATHWAY INHIBITOR” (National Cancer Center, priority 2018, published 2022)
Like-named read-outs stand apart in the source and are kept apart here.

Experiments:
ARID1A-WT HCT116 cells [1] = test: Drug library screen, cell viability (CellTiter-Glo); settings: 10 μM for 5 days, relative to cells treated with solvent (DMSO)
ARID1A-WT HCT116 cells [2] = tested on: ARID1A-WT HCT116 cells

Row | Compound | Cell viability, WT (ARID1A-WT HCT116 cells [1]) | Cell viability, WT (ARID1A-WT HCT116 cells [2]) | Cell viability, KO (ARID1A-KO HCT116 cells)
1 | O=C(Nc1ccc2c(O)cc(S(=O)(=O)O)cc2c1)Nc1ccc2c(O)cc(S(=O)(=O)O)cc2c1 [AMI-1] | 88.42 |  | 
2 | COC(=O)[C@H](CC(C)C)NC(=O)c1ccc(NC[C@@H](N)CS)cc1-c1ccccc1 [GGTI-286] | 133.2565 |  | 
3 | JAK3 Inhibitor VI |  | 7.509 | 17.2416
